Results reported in ChEMBL document CHEMBL1141977, “Studies towards the next generation of antidepressants. Part 4: derivatives of 4-(5-fluoro-1H-indol-3-yl)cyclohexylamine with affinity for the serotonin transporter and the 5-HT1A receptor” (Bioorg Med Chem Lett, 2005).

The chains behind the UniProt entries cited, without tags or fusion partners.
UniProt P31652, whole entry: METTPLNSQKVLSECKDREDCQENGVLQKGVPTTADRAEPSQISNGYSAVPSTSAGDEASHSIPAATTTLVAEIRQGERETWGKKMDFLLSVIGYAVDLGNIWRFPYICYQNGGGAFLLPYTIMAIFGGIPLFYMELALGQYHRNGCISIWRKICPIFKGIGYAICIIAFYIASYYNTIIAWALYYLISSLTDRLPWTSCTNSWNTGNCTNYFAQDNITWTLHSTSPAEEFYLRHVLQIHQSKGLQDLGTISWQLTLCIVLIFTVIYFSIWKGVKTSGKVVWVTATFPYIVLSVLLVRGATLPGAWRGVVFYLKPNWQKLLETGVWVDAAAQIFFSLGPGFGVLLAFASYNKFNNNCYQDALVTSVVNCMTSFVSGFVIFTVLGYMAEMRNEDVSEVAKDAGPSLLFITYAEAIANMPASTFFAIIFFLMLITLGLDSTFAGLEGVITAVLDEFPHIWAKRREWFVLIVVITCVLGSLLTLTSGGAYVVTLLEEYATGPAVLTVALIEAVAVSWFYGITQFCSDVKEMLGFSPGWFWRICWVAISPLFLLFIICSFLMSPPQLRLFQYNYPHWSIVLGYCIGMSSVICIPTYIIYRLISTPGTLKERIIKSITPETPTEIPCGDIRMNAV

Target: Sodium-dependent serotonin transporter (Rattus norvegicus, UniProt P31652)
Test: Binding affinity determined against Serotonin transporter determined by displacement of [3H]paroxetine from rat cortical membranes
Assay type: cell membranes, Membrane

COc1ccccc1OCCN[C@H]1CC[C@@H](c2c[nH]c3ccc(F)cc32)CC1
Ki: 3.98 nM

COc1ccccc1OCCN[C@H]1CC[C@H](c2c[nH]c3ccc(F)cc32)CC1
Ki: 6.48 nM
